Experimental data taken from ChEMBL document CHEMBL4425156, “The evolution of P2X7 antagonists with a focus on CNS indications” (Bioorg Med Chem Lett, 2016).

The chains behind the UniProt entries cited, without tags or fusion partners. Where a name states a change or a piece, a line headed by the entry shows the natural chain unless it says otherwise.
UniProt Q99572: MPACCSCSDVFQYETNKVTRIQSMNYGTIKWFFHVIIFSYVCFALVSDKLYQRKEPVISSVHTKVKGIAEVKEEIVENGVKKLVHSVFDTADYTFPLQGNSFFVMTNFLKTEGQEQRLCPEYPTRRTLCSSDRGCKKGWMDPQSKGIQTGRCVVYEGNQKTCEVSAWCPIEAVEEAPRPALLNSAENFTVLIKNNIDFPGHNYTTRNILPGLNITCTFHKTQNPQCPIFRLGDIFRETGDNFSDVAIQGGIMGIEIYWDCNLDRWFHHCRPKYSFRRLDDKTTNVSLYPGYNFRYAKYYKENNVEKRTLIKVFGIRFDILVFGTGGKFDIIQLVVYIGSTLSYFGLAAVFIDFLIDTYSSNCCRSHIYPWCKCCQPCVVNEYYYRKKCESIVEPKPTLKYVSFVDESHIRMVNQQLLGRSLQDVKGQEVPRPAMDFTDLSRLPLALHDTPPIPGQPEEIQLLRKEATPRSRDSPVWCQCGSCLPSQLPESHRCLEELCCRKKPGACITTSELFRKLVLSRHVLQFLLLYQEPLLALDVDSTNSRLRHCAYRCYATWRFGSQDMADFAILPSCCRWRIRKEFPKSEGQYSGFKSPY

Tests used:
P2X purinoceptor 7 [1] = molecular target: P2X purinoceptor 7 (Homo sapiens, UniProt Q99572); assay: Antagonist activity at P2X7 receptor in human whole blood assessed as inhibition of BzATP-induced IL-1beta release preincubated for 30 mins followed by stimulation with BzATP for […] by ELISA; assay type: tissue-based
P2X purinoceptor 7 [2] = molecular target: T1, P2X purinoceptor 7 (Rattus norvegicus, UniProt Q64663); assay: Antagonist activity at rat P2X7 receptor expressed in 1321N1 cells assessed as inhibition of BzATP-induced calcium mobilization incubated for 30 mins measured after 180 seconds by calcium-4 dye based FLIPR assay; assay type: cell-based
T1 sequence (Q64663 whole entry): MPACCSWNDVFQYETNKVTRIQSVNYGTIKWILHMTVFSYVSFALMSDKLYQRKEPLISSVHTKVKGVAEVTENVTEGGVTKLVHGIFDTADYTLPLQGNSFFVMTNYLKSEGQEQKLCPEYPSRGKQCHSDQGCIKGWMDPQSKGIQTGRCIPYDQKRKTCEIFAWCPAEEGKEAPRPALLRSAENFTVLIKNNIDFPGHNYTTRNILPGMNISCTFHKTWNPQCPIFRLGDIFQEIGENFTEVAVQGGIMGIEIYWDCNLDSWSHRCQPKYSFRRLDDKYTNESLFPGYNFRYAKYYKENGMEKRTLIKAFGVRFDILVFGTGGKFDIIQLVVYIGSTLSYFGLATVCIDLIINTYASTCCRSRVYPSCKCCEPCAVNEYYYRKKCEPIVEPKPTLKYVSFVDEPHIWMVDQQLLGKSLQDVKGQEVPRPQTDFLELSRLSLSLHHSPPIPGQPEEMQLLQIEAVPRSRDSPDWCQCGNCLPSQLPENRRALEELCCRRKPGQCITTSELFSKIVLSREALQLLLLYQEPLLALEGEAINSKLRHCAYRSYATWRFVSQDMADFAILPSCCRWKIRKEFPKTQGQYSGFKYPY

Structure (SMILES)	EC50 (P2X purinoceptor 7 [1]) [nM]	IC50 (P2X purinoceptor 7 [2]) [nM]
Cc1nc2c(c(-c3ccn[nH]3)n1)C[C@@H](C)N(C(=O)c1cccc(C(F)(F)F)c1Cl)C2	158	–
Cc1nc2c(c(-c3ccccc3)n1)CCN(C(=O)c1cccc(C(F)(F)F)c1Cl)C2	–	4790
Cc1nc2c(c(-c3ccn[nH]3)n1)C[C@@H](C)N(C(=O)c1ccc(Cl)cc1F)C2	–	17
